Test results from patent US20240368145A1, “METHODS FOR TREATING CANCER” (IMMUNIC AG, priority 2021, published 2024).

Columns and labels:
[1] = tested on: AR-FL protein; assay: Androgen receptor protein expression (western blot) in 22Rv1: AR-FL; format: cell-based, human; conditions: 22Rv1, 6 μM, 48 h; western blot quantification
Protocol: (§1) After 48 h, cell were lysed using cell extraction buffer (Life Technologies #FNN0011) for western blot. […] The membrane is then incubation for 1 hour in blocking buffer (5% milk in 20 mM Tris, 150 mM NaCl, pH 7.5, 0.05% Tween 20 [TBS-T]). After this incubation, the primary antibody is added and incubated overnight at 4° C. After washing, the membrane was incubated with the secondary antibody for 1 h. Visualization of the bands was performed using the femto maximum sensitivity substrate reagent and the luminescence signal recorded with the Fusion FX7 (Vilber). For protein quantification, InageJ was used.

[2] = tested on: AR-V7 protein; assay: Androgen receptor protein expression (western blot) in 22Rv1: AR-V7; format: cell-based, human; conditions: 22Rv1, 6 μM, 48 h; western blot quantification
Protocol: as §1

## CNC(=O)c1ccc(N2C(=S)N(c3ccc(C#N)c(C(F)(F)F)c3)C(=O)C2(C)C)cc1F [enzalutamide, reference compound]
[1]
  AR-FL protein level: 0.886
[2]
  AR-V7 protein level: 0.704
